From patent publication US5753516A, “Screening method for ligands of the EBI-1 receptor” (priority 1995, dated 1998)

The chains behind the UniProt entries cited, without tags or fusion partners. Residues count along the entry.
UniProt P32248, 25-378 limits assumed: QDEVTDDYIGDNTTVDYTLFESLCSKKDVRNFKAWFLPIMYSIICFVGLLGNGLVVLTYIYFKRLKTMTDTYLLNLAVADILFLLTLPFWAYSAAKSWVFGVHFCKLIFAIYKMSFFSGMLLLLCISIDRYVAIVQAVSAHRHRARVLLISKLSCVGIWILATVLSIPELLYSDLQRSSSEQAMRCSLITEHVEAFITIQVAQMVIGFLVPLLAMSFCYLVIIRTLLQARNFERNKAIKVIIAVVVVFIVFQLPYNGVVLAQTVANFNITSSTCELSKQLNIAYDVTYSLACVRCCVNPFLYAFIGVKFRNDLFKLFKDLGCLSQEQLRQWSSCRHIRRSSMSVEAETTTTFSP

Key:
EBI 1 = EBI 1 (Homo sapiens, UniProt P32248); test: cAMP accumulation in COS cells transfected with EBI 1; details: COS cells expressing lymphocyte receptor
Jurkat cells = test: Binding of ^3 H-labeled δ- and κ-agonists to Jurkat cells; details: dose 50 nM
NALM 6 cells [1] = details: Heagy et al., 1992; cited from earlier work
NALM 6 cells [2] = test: Binding of ^3 H-labeled δ- and κ-agonists to NALM 6 cells; parameters: species or system human; details: NALM 6, at concentrations s 5 nM
murine splenocytes = details: Taub et al.; cited from earlier work

For CN(C(=O)Cc1ccc(Cl)c(Cl)c1)C1CCCCC1N1CCCC1 (centres unmarked), the “effect on intracellular cAMP, EBI1 transfectants” value (EBI 1) was “but not DAMGO (μ-agonist) or U50,488 (κ-agonist) elicited an elevation in intracellular cAMP content”.

In the case of CN(C(=O)Cc1ccccc1)C1CCC2(CCCO2)CC1N1CCCC1 (centres unmarked), the “specific binding, % of total” value (Jurkat cells) is given as 50-60%, the “[Ca^2+ ]i response” value (NALM 6 cells [1]) is given as “stimulates a rapid increase in [Ca^2+ ]i” and the “specific binding, % of total” value (NALM 6 cells [2]) is given as 50-80%. The “humoral / antibody response” value (murine splenocytes) was “inhibition of antibody responses”.
